Assay results taken from patent US8278319B2, “Substituted spiroamine compounds” (Gruenenthal GmbH, priority 2008, dated 2012).

By UniProt entry, the sequences of proteins in these tests, tags left out.
UniProt P35372, whole entry, looked up: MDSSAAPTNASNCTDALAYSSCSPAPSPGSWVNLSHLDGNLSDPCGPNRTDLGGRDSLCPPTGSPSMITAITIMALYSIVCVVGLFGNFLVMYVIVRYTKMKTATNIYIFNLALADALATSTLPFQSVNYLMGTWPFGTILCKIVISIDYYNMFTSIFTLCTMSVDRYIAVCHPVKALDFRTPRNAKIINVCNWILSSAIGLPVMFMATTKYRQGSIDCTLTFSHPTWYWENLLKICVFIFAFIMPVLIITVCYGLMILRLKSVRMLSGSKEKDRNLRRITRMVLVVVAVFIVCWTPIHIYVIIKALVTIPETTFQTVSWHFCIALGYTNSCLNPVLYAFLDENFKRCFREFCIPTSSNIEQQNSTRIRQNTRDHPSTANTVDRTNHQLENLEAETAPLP

Target: human μ-opiate receptor (Homo sapiens, UniProt P35372)
Experiment: Affinity to the human μ-opiate receptor, [3H] naloxone displacement (SPA)
Details: test substance 1 μM; inhibition of specific binding of [3H] naloxone; CHO-K1 membrane preparation

SMILES	μ-Opioid receptor [1 μM] % Inhibition [%]
Cc1cccc(Cl)c1S(=O)(=O)N(CCOCC(=O)N1CCC2(CC1)CCC(c1cccc(F)c1)(N1CCCC1)CC2)C1CC1 [CC-06, 2-Chloro-N-cyclopropyl-N-[2-[2-[3-(3-fluorophenyl)-3-pyrrolidin-1-yl-9-azaspiro[5.5]undecan-9-yl]-2-oxo-ethoxy]-ethyl]-6-methyl-benzenesulfonic acid amide]	77
COc1cc(C)c(S(=O)(=O)N2CCCCC2CCCC(=O)N2CCC3(CC2)CCC(c2cccc(F)c2)(N2CCCC2)CC3)c(C)c1 (stereo not drawn) [CC-02, 1-[3-(3-Fluorophenyl)-3-pyrrolidin-1-yl-9-azaspiro[5.5]undecan-9-yl]-4-[1-[(4-methoxy-2,6-dimethyl-phenyl)sulfonyl]-pipereridin-2-yl]-butan-1-one]	47
COc1cc(C)c(S(=O)(=O)N(CCOCC(=O)N2CCC3(CC2)CCC(c2cccs2)(N(C)C)CC3)C2CC2)c(C)c1 [CC-12, N-Cyclopropyl-N-[2-[2-(3-dimethylamino-3-thiophen-2-yl-9-azaspiro[5.5]undecan-9-yl)-2-oxo-ethoxy]-ethyl]-4-methoxy-2,6-dimethyl-benzenesulfonic acid amide]	100
O=C(CC(NS(=O)(=O)c1ccc2ccccc2c1)c1ccccc1)N1CCC2(CC1)CCC(c1cccc(F)c1)(N1CCCC1)CC2 (stereo not drawn) [CC-08, N-[3-[3-(3-Fluorophenyl)-3-pyrrolidin-1-yl-9-azaspiro[5.5]undecan-9-yl]-3-oxo-1-phenyl-propyl]-naphthalene-2-sulfonic acid amide]	86
COc1cc(C)c(S(=O)(=O)N2c3ccccc3C[C@H]2COCC(=O)N2CCC3(CC2)CCC(c2ccccc2)(N(C)C)CC3)c(C)c1 [Compound 4, 1-(9-(Dimethylamino)-9-phenyl-3-azaspiro[5.5]undecan-3-yl)-2-(((S)-1-(4-methoxy-2,6-dimethylphenylsulfonyl)indolin-2-yl)methoxy)ethanone]	99
Cc1cc(S(=O)(=O)N2CCCCC2CCC(=O)N2CCC3(CC2)CCC(c2ccccc2)(N(C)C)CC3)c(C)cc1Cl (stereo not drawn) [Compound 7, 3-(1-(4-Chloro-2,5-dimethylphenylsulfonyl)piperidin-2-yl)-1-(9-(dimethylamino)-9-phenyl-3-azaspiro[5.5]undecan-3-yl)propan-1-one]	101
COc1cc(C)c(S(=O)(=O)N(CCOCC(=O)N2CCC3(CC2)CCC(c2cccc(F)c2)(N2CCCC2)CC3)C2CC2)c(C)c1 [CC-04, N-Cyclopropyl-N-[2-[2-[3-(3-fluorophenyl)-3-pyrrolidin-1-yl-9-azaspiro[5.5]undecan-9-yl]-2-oxo-ethoxy]-ethyl]-4-methoxy-2,6-dimethyl-benzenesulfonic acid amide]	78
O=C(CC1CCCCN1S(=O)(=O)c1cccc(C(F)(F)F)c1)N1CCC2(CC1)CCC(c1cccc(F)c1)(N1CCCC1)CC2 (stereo not drawn) [CC-01, 1-[3-(3-Fluorophenyl)-3-pyrrolidin-1-yl-9-azaspiro[5.5]undecan-9-yl]-2-[1-[[3-(trifluoromethyl)phenyl]sulfonyl]-piperidin-2-yl]-ethanone]	12
COc1cc(C)c(S(=O)(=O)N2CCCC[C@H]2COCC(=O)N2CCC3(CC2)CCC(c2cccc(F)c2)(N(C)C)CC3)c(C)c1 [Compound 11, 1-(9-(Dimethylamino)-9-(3-fluorophenyl)-3-azaspiro[5.5]undecan-3-yl)-2-(((S)-1-(4-methoxy-2,6-dimethylphenylsulfonyl)piperidin-2-yl)methoxy)ethanone]	106
COc1cc(C)c(S(=O)(=O)N2C=CNC(=O)[C@H]2CC(=O)N2CCC3(CC2)CCC(c2ccccc2)(N(C)C)CC3)c(C)c1 [Compound 10, (3R)-3-(2-(9-(Dimethylamino)-9-phenyl-3-azaspiro[5.5]undecan-3-yl)-2-oxoethyl)-4-(4-methoxy-2,6-dimethylphenylsulfonyl)-3,4-dihydropyrazin-2(1H)-one]	96
COc1cc(C)c(S(=O)(=O)N2CCCCC2CCCC(=O)N2CCC3(CC2)CCC(c2ccccc2)(N(C)C)CC3)c(C)c1 (stereo not drawn) [Compound 8, 1-(9-(Dimethylamino)-9-phenyl-3-azaspiro[5.5]undecan-3-yl)-4-(1-(4-methoxy-2,6-dimethylphenylsulfonyl)piperidin-2-yl)butan-1-one]	103
COc1cc(C)c(S(=O)(=O)N2CCCCC2COCC(=O)N2CCC3(CC2)CCC(c2cccc(F)c2)(N2CCCC2)CC3)c(C)c1 (stereo not drawn) [CC-03, 1-[3-(3-Fluorophenyl)-3-pyrrolidin-1-yl-9-azaspiro[5.5]undecan-9-yl]-2-[[1-[(4-methoxy-2,6-dimethyl-phenyl)sulfonyl]-piperidin-2-yl]-methoxy]-ethanone]	37
Cc1cccc(Cl)c1S(=O)(=O)N1CCCCC1COCC(=O)N1CCC2(CC1)CCC(c1cccs1)(N(C)C)CC2 (stereo not drawn) [CC-13, 2-[[1-[(2-Chloro-6-methyl-phenyl)sulfonyl]-piperidin-2-yl]-methoxy]-1-(3-dimethylamino-3-thiophen-2-yl-9-azaspiro[5.5]undecan-9-yl)-ethanone]	97
Cc1cc(S(=O)(=O)N2CCCCC2CCC(=O)N2CCC3(CC2)CCC(c2cccc(F)c2)(N2CCCC2)CC3)c(C)cc1Cl (stereo not drawn) [CC-07, 3-[1-[(4-Chloro-2,5-dimethyl-phenyl)sulfonyl]-piperidin-2-yl]-1-[3-(3-fluorophenyl)-3-pyrrolidin-1-yl-9-azaspiro[5.5]undecan-9-yl]-propan-1-one]	26
Cc1cccc(Cl)c1S(=O)(=O)N1CCCC[C@H]1COCC(=O)N1CCC2(CC1)CCC(c1ccccc1)(N(C)C)CC2 [Compound 6, 2-(((S)-1-(2-Chloro-6-methylphenylsulfonyl)piperidin-2-yl)methoxy)-1-(9-(dimethylamino)-9-phenyl-3-azaspiro[5.5]undecan-3-yl)ethanone]	98
Cc1cccc(Cl)c1S(=O)(=O)N(CCOCC(=O)N1CCC2(CC1)CCC(c1cccs1)(N(C)C)CC2)C1CC1 [CC-09, 2-Chloro-N-cyclopropyl-N-[2-[2-(3-dimethylamino-3-thiophen-2-yl-9-azaspiro[5.5]undecan-9-yl)-2-oxo-ethoxy]-ethyl]-6-methyl-benzenesulfonic acid amide]	102
CN(C)C1(c2cccs2)CCC2(CCN(C(=O)CC(NS(=O)(=O)c3ccc4ccccc4c3)c3ccccc3)CC2)CC1 (stereo not drawn) [CC-15, N-[3-(3-Dimethylamino-3-thiophen-2-yl-9-azaspiro[5.5]undecan-9-yl)-3-oxo-1-phenyl-propyl]-naphthalene-2-sulfonic acid amide]	105
COc1cc(C)c(S(=O)(=O)N(CCOCC(=O)N2CCC3(CC2)CCC(c2ccccc2)(N(C)C)CC3)C2CC2)c(C)c1 [Compound 3, N-Cyclopropyl-N-(2-(2-(9-(dimethylamino)-9-phenyl-3-azaspiro[5.5]undecan-3-yl)-2-oxoethoxy)ethyl)-4-methoxy-2,6-dimethylbenzenesulfonamide]	100
